According to patent US11905268B2, “Anthranilic acid derivatives and their use in the treatment of human cancers” (UNIVERSITY OF CENTRAL FLORIDA RESEARCH FOUNDATION, INC., priority 2018, dated 2024):

Legend:
[1] = system: DFMO treated Chinese hamster ovary (CHO) cells; assay: DFMO/spermidine rescue assay in CHO cells (Assay 2); assay type: cell-based; settings: Cricetulus griseus
Protocol: In the reconfirmation assay compounds were run in quadruplicate. […] A PTI compound is expected to block the entry or disrupt the intracellular trafficking of spermidine and inhibit the ability of spermidine to rescue the growth or viability of DFMO treated cells.
DFMO/Spermidine assay Here cells were treated with an inhibitor of polyamine biosynthesis (DFMO) and rescued back to high viability by the presence of exogenous polyamine (spermidine). Putative PTI compounds were screened for their ability to block the entry or intracellular trafficking of exogenous spermidine (or otherwise disrupt the intracellular trafficking of spermidine) by measuring cell viability in the presence of DFMO+spermidine+PTI compound. […] This was followed by adding 10 μL of […] and 5 μM spermidine (FAC 5 mM DFMO and 1 μM spermidine) in assay medium with a Beckman BioRAPTR FRD dispenser or 10 μL of 5 mM DFMO added in assay medium (positive control). […] A PTI compound is expected to block the entry or disrupt the intracellular trafficking of spermidine and inhibit the ability of spermidine to rescue the growth or viability of DFMO treated cells Cytotoxicity

[2] = system: CHO cells; assay: Cytotoxicity screen in CHO cells; settings: Chinese hamster, CHO K1 cells
Protocol: CHO K1 cells were grown in growth medium to 70% confluency and washed in PBS and trypsinized. […] Cells were spun at 100×g for 1 minute and incubated at 37° C. in a humidified CO2 incubator for 24 hours. […] Cellular ATP content was then assayed by adding 3 uL of ATPLite with a Beckman BioRAPTR FRD dispenser and incubated for 10 minutes at room temperature. Plates were spun at 200×g for 1 minute and read on a Perkin Elmer Viewlux multimode plate reader using luminescence mode. This assay was used for testing dose-response of dry powders.
CHO K1 cells were grown in growth medium to 70% confluency and washed in PBS and trypsinized. Cells were plated in assay medium at 10000 cells/mL for 200 cells per well using a Thermo Multidrop Combi in 20 uL into a white Greiner plate. Cells were spun at 100×g for 1 minute and incubated at 37° C. in a humidified CO2 incubator for 24 hours. […] This was followed by adding by 10 μL of assay medium to all wells with a Beckman BioRAPTR FRD dispenser. […] Plates were spun at 200×g for 1 minute and read on a Perkin Elmer Envision for multimode plate reader using luminescence mode. […]
The final compound concentration was either 20 μM or 10 μg/mL (depending upon the compound source). […] Assay 2 then evaluated the ability of the compound to inhibit the uptake of a rescuing dose of Spermidine (Spd, 1 μM) into DFMO-treated CHO cells.

[3] = Table 7, read-out: SAR IC50 DFMO assay

Structure (SMILES)	IC50 [1, 3] [µM]	IC50 ([1]; Table 4B, read-out: DFMO/CHO IC50) [µM]	IC50 at 48 h [2] [µM]
COc1ccc(CC(=O)Nc2ccc(N3CCN(c4cc(Cl)ccc4C)CC3)cc2C(=O)O)cc1 [SBI-0754480]	25	–	–
COc1ccccc1N1CCN(c2ccc(NC(=O)c3ccccc3Cl)c(C(=O)O)c2)CC1 [SBI-0800670]	26	–	–
COc1ccc(C(=O)Nc2ccc(N3CCN(c4ccccc4OC)CC3)cc2C(=O)O)cc1 [SBI-0800678]	26	26	–
COc1ccc(C(=O)Nc2ccc(N3CCN(c4ccccc4)CC3)cc2C(=O)O)cc1 [SBI-0800679]	–	–	17
COc1ccc(C(=O)Nc2ccc(N3CCC(C(N)=O)CC3)cc2C(=O)O)cc1 [SBI-0800693]	–	–	22

Read-outs that look alike come from different tables or passages of the source.
